From BindingDB's records for patent US20240277683 (Ctxt, 2024) come the findings set out here.

Amino acid sequences for entries named in this document (tags omitted). Residues count along the entry.
UniProt Q8WYB5, whole entry: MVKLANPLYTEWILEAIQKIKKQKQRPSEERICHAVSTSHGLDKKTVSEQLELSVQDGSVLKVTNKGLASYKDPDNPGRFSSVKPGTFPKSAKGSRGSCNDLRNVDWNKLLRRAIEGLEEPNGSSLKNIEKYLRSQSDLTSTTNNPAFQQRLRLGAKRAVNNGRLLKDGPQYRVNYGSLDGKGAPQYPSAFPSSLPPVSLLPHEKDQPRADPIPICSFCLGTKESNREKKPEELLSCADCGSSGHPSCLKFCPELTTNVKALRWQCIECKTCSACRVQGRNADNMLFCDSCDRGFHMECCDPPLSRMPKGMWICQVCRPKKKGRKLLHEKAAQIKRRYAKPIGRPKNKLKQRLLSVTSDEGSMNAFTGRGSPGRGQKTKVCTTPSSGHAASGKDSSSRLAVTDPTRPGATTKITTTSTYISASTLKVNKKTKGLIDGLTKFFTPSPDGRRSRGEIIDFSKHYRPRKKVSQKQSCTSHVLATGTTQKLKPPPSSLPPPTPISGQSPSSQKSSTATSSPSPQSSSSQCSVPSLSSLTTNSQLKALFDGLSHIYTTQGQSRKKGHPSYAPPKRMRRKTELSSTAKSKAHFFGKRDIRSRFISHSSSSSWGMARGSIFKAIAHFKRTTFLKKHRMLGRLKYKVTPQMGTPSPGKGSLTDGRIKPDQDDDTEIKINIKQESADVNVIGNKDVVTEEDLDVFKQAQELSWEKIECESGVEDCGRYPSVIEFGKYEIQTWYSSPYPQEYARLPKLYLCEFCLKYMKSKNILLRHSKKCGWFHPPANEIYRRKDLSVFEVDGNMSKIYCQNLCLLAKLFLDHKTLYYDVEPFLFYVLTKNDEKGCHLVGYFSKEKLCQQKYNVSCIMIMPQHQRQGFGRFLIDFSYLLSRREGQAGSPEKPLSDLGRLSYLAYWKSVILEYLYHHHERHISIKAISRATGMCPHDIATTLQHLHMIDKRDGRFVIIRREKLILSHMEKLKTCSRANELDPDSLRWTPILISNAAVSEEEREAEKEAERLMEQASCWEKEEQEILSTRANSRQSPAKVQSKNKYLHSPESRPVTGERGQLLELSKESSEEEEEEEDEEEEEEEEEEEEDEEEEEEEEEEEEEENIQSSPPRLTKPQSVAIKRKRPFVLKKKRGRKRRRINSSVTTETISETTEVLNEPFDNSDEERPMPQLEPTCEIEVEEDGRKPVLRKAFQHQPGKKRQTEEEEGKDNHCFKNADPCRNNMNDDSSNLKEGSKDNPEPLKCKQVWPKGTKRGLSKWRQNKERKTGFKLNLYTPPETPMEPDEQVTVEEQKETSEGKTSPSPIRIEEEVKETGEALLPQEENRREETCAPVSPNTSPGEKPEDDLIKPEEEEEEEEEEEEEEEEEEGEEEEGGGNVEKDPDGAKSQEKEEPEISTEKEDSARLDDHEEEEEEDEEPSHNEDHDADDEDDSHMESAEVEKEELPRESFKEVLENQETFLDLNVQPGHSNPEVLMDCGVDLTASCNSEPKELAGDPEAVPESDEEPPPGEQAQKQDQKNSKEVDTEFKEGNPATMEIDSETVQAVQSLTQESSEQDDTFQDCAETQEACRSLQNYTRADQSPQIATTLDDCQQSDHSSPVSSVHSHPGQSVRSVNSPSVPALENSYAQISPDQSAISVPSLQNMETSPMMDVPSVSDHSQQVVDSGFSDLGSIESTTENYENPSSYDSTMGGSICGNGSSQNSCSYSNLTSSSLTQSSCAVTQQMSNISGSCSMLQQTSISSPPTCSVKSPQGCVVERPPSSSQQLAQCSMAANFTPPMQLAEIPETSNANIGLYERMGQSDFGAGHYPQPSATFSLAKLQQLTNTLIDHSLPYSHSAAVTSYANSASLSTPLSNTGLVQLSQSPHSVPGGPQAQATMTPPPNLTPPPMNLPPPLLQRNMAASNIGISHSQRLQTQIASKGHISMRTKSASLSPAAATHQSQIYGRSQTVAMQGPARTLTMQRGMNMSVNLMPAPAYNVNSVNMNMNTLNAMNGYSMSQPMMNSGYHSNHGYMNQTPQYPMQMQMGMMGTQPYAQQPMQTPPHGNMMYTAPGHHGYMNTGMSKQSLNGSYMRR
UniProt Q92794, 507-778: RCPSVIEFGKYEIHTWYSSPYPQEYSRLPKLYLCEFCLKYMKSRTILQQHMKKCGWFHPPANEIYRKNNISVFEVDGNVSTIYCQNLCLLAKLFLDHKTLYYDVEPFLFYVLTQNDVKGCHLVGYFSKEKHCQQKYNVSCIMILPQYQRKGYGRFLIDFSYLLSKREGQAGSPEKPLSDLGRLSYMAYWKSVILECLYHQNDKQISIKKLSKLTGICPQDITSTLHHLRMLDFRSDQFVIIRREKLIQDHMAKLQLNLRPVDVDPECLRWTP
UniProt O95251, whole entry: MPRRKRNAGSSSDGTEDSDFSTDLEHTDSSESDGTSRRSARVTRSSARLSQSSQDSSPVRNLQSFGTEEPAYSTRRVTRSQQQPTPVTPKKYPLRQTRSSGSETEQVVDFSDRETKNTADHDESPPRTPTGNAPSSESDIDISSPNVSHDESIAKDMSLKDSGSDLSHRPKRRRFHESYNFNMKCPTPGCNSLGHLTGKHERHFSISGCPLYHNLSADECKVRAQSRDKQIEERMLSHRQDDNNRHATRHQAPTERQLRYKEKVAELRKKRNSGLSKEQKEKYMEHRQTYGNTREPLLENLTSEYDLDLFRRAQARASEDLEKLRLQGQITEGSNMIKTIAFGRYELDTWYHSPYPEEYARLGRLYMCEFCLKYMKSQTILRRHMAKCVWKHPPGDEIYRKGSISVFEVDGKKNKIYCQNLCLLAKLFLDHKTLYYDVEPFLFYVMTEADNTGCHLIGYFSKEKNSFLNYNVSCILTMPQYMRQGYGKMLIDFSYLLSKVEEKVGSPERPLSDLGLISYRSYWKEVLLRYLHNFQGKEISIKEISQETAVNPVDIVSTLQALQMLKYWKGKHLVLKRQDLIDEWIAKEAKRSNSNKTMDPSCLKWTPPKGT
UniProt Q92993, whole entry: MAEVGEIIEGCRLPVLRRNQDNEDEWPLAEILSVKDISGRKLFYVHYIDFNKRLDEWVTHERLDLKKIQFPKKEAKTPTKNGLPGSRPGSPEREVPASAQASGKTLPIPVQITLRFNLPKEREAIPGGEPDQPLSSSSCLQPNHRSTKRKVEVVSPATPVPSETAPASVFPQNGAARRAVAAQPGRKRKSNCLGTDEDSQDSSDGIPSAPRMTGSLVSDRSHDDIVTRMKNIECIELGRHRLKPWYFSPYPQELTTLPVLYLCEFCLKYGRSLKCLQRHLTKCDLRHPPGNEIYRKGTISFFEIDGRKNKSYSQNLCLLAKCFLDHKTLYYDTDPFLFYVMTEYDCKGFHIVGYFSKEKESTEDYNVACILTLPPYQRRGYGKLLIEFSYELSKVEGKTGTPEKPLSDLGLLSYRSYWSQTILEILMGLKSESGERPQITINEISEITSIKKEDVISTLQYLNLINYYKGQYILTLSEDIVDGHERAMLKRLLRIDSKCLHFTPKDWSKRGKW

Holding throughout (assay): Acetyltransferase Biochemical Assay
The target of assay [1] is Histone acetyltransferase KAT6B (Human, UniProt Q8WYB5). As to the method:
(§1) The reactions were performed in assay buffer (100 mM Tris-HCl, pH7.8, 15 mM NaCl, 1 mM EDTA, 0.01% Tween-20, 1 mM Dithiothreitol and 0.01% m/v chicken egg white albumin). […] 11-point dilution series of the test compounds were prepared in DMSO; a volume of 100 nL was transferred using a pin tool into assay plates containing substrates, […] control reactions were included on the same plates and received the same amount of DMSO as the compound treated wells. After adding all reagents, the plates were sealed with adhesive seals and incubated for 90 min at room temperature. An additional 4 uL of assay buffer containing AlphaScreen Protein A acceptor beads […] was then added.

Assay [2] addresses Histone acetyltransferase KAT6A [507-778] (Homo sapiens, UniProt Q92794). How it is done:
as §1

In assay [3] the target is Histone acetyltransferase KAT7 (Homo sapiens, UniProt O95251). As to the method: as §1
In assay [4] the target is Histone acetyltransferase KAT5 (Homo sapiens, UniProt Q92993). As to the method: as §1

With `COc1ccccc1-c1cc(NS(=O)(=O)Cc2ccccc2)no1` [US20240277683, Example 2], it took 7.77 µM to reach half-maximal inhibition in assay [1] (IC50). On the same count and under the same terms, under `COc1ccccc1-c1cc(NS(=O)(=O)CCc2ccccc2)no1` [US20240277683, Example 4] stands 23.7 µM. Same read-out and setting: with `COc1ccccc1-c1cc(NS(=O)(=O)c2c(OC)cccc2OC)no1` [US20240277683, Example 56] the figure was 3.14 µM.

`O=S(=O)(Cc1noc(-c2ccccc2)n1)c1ccccc1F` [US20240277683, Example 68] yielded an IC50 in assay [2] of 92.4 µM. As for `COc1ccc(-c2ccn[nH]2)cc1-c1cc(NS(=O)(=O)c2c(OC)cccc2OC)no1` [US20240277683, Example 72], the IC50 in assay [3] was found to be 0.0388 µM; in assay [4] it was 0.106 µM. On to `COCc1ccc(OC)c(-c2cc(NS(=O)(=O)c3c(OC)cccc3OC)no2)c1` [US20240277683, Example 73], for which the IC50 in assay [1] was 0.117 µM.

In assay [2], `Cc1ccc(S(=O)(=O)Nc2cc(-c3cccc(Cc4ccccc4)c3)no2)cc1C` [US20240277683, Example 77] registered an IC50 of 2.2 µM. The same measure, in the same setting: under `COC(=O)c1c(-c2ccc(OC)cc2)noc1NS(=O)(=O)c1ccc(C)c(C)c1` [US20240277683, Example 83] stands 80.8 µM. For `COc1ccc(-c2ccn(C)n2)cc1-c1cc(NS(=O)(=O)c2c(OC)cccc2OC)no1` [US20240277683, Example 118], the values for the IC50 in assay [3] and in assay [4] were 3.08 µM and 41.9 µM, respectively.
